Measured values published in patent US6875748B2, “Compositions and methods for in vivo delivery of polynucleotide-based therapeutics” (Vical Incorporated, priority 2000, dated 2005).

Test system: mouse quadriceps muscle
Test: Luciferase expression in mouse quadriceps muscle after injection of VR1255 in 150 mM sodium and potassium salt solutions
Format: in vivo
Details: VR1255, day 7

## O=C[C@H](O)[C@@H](O)[C@H](O)[C@H](O)COP(=O)([O-])[O-].[Na+].[Na+] [glucose-6-phosphate, disodium glucose-6-phosphate]
  luciferase expression compared with saline or potassium chloride: increased luciferase expression

## O=P([O-])([O-])OCC(O)CO.[Na+].[Na+] (racemic) [disodium glycerophosphate, disodium DL-α-glycero-phosphate]
  luciferase expression compared with saline or potassium chloride: showing a significant increase
